Laboratory results taken from patent US20260382581A1, “COMPOSITIONS COMPRISING CYTISINE IN THE TREATMENT AND/OR PREVENTION OF ADDICTION IN SUBJECTS IN NEED THEREOF” (published 2026).

Key:
[1] = tested on: adult users of nicotine e-cigarettes; assay: claude: secondary continuous vaping abstinence (Weeks 3-6, 6-9, 3-9, Week 9 to 16)
Excerpt: (§1) A second measurement consisted of biochemically verified continuous vaping abstinence at any time during treatment, with vaping abstinence at Week 3-6 or Week 6-9 for of cytisinicline treatment vs placebo. 7-day point prevalence rates were compared for vaping abstinence (Week 2 to 12) (FIG. 62). An additional measurement included reduction in daily vaping as measured by cotinine, where cytisinicline treatment vs placebo for a reduction in nicotine vaping using weekly quantitative cotinine levels from Week 2 to Week 12. Safety was assessed by adverse effects and serious adverse effects, considering number, severity, and attribution to study drug. Early beneficial effect was observed and continued throughout the 12 weeks with some weeks at or close to statistical significance (weeks 4, 6, 7, 8, 9, and 12) (FIGS. 63-65). Cotinine values less than 1 were converted to 1 due to extreme asymmetry (FIG. 65)
Primary Marginal and Secondary Outcomes: the primary outcome analysis (not stratified) and the secondary outcomes are analyzed using Fisher's exact test. A forest graph compares the primary outcome marginal and secondary outcome effects (FIG. 43)

[2] = ORCA-2: adverse events, serious adverse events, discontinuations; conditions: for Mild treatment emergent adverse events, % / Moderate treatment emergent adverse events, % / Severe treatment emergent adverse events, %: % of events
Experimental: Safety was assessed by measurement of vital signs and participant self-report of adverse events and concomitant medications on day 2 and at weekly visits during treatment from week 1 to 12 and through an additional 12-week follow-up. Hematology and chemistry laboratory tests were done at weeks 1, 6, and 12. Electrocardiograms were done at weeks 6 and 12. Clinically significant adverse events or abnormalities were followed until resolution or end of study.
The study had two primary endpoints. They assessed whether cytisinicline produced greater biochemically-confirmed continuous smoking abstinence when compared to placebo during the last 4 weeks of the 6-week treatment (weeks 3 to 6 for Arms B vs. A) and the 12-week treatment (weeks 9 to 12 for Arms C vs. A). Study success was defined as either primary endpoint meeting statistical criterion. The secondary outcome measures were verified continuous cigarette abstinence to week 24 (weeks 3 to 24 for Arms B vs. A; weeks 9 to 24 for Arms C vs. A). A third secondary outcome measure compared the risk of relapse to smoking between weeks 6 and 24 among participants assigned to cytisinicline who achieved abstinence by week 6; these individuals were either switched to placebo at week 6 (Arm B) or continued cytisinicline to week 12 (Arm C). Other pre-specified endpoints included comparing the difference between arms in verified 7-day point-prevalence abstinence at each visit from week 2 through week 24 and assessing for evidence of effect modification for subsets defined by baseline attributes. To assess cigarette craving between groups, the Brief Questionnaire of Smoking Urges (QSU-brief) was administered at clinic visits on Day 0 and at Weeks 1 to 6 (4, 5). Safety outcomes included the incidence of treatment-emergent serious and non-serious adverse events during treatment with cytisinicline or placebo and clinically-significant changes in vital signs, laboratory tests or electrocardiograms.
Analyses for the binary primary and secondary outcomes were based on exact analyses 2×2 tables stratified by clinical site. Missed assessments of primary and secondary endpoints were imputed as non-success, thereby enabling analyses following the intent-to-treat principle. The Hochberg procedure was used to control for multiplicity (6). A target sample of 750 participants (n=250 per arm) was computed and verified using simulations to provide 96% power for specifications of an overall one-sided 0.025 type I error probability and success probabilities of 7% for placebo and 19% for cytisinicline. Sensitivity analyses included assessments of effect modification related to subsets defined by baseline attributes using logistic and cumulative logit models. Longitudinal analyses used Mixed Model for Repeated Measures methodology (7). Safety analyses included all randomized participants who received at least one dose of study drug. Analyses were conducted by BB.

[3] = claude: weekly saliva cotinine levels and change from baseline; conditions: for Saliva cotinine, LS means difference from placebo, p-value: vs placebo, Bonferroni adjusted
Experimental: The first measurement consisted of biochemically verified continuous vaping abstinence during the last 4 weeks of treatment after 12 weeks of cytisinicline treatment vs placebo. Vaping abstinence during weeks 9-12 was verified with no reported vaping with weekly saliva cotinine levels<10 ng/mL. Primary Analysis with prospective stratification factor odds ratio was 2.64 (p=0.035), primary analysis with site as a stratification factor odds ratio was 3.03 (p=0.017), and primary analysis without any stratification factor odds ratio was 2.62 (p=0.035) (FIG. 59).
as §1
Cotinine: The data were analyzed by visit and also using a repeated measures model. There are two longitudinal figures for the graphs of the results from the repeated measure model: arm-specific probability model estimates and arm effect odds ratio model estimates (FIGS. 51-55). Cotinine values less than 1 were converted to 1 due to asymmetry.

[4] = Week 9 to Week 16, 12 Weeks arm, N = 107
[5] = Arm B, 6 weeks + placebo 6 weeks, N = 269
[6] = Arm B, 6 weeks + placebo 6 weeks

## O=c1cccc2n1C[C@@H]1CNC[C@H]2C1
[1]; 12 weeks, N = 107
  Vaping cessation from Week 3 to Week 6, %: 24.3%
  Vaping cessation from Week 6 to Week 9, %: 30.8%
[1]; Week 3 to 6, vs placebo
  Difference in Proportions (95% CI): 0.09 (−0.058, 0.209)
  Odds Ratio (95% CI): 1.81 (0.766, 4.551)
[1]; Week 6 to 9, vs placebo
  Difference in Proportions (95% CI): 0.14 (−0.019, 0.263)
  Odds Ratio (95% CI): 2.18 (0.967, 5.202)
[1]; [4]
  Continuous vaping abstinence, percent of subjects: 23.4%
  Continuous vaping abstinence, subjects: 25 n
[1]; Week 9 to Week 16, vs placebo
  Continuous vaping abstinence, difference in proportions: 0.10
  Continuous vaping abstinence, odds ratio: 2.00
[2]; 6-week arm (Arm B)
  Treatment-emergent adverse events, participants: 172 (63.9%) n (%)
[2]; 12-week arm (Arm C)
  Treatment-emergent adverse events, participants: 184 (68.2%) n (%)
[2]; [5]
  Abnormal dreams, % participants: 8.2%
  Abnormal dreams, n participants: 22 n
  Anxiety, % participants: 2.6%
  Anxiety, n participants: 7 n
  Any serious adverse event, % participants: 3.7%
  Any serious adverse event, n participants: 10 n
  Any treatment emergent adverse event, % participants: 63.9%
  Any treatment emergent adverse event, n participants: 172 n
  Any treatment-related serious adverse event, % participants: 0%
  Any treatment-related serious adverse event, n participants: 0 n
  Constipation, % participants: 5.9%
  Constipation, n participants: 16 n
  Diarrhea, % participants: 3.7%
  Diarrhea, n participants: 10 n
  Headache, % participants: 6.7%
  Headache, n participants: 18 n
  Insomnia, % participants: 8.6%
  Insomnia, n participants: 23 n
  Nausea, % participants: 5.9%
  Nausea, n participants: 16 n
  Number of treatment emergent adverse events: 459 n
[2]; [6]
  Mild treatment emergent adverse events, %: 63.2%
  Moderate treatment emergent adverse events, %: 32.2%
  Severe treatment emergent adverse events, %: 4.6%
[2]; Arm C, 12 weeks, N = 270
  Abnormal dreams, % participants: 7.8%
  Abnormal dreams, n participants: 21 n
  Anxiety, % participants: 5.6%
  Anxiety, n participants: 15 n
  Any serious adverse event, % participants: 3.0%
  Any serious adverse event, n participants: 8 n
  Any treatment emergent adverse event, % participants: 68.2%
  Any treatment emergent adverse event, n participants: 184 n
  Any treatment-related serious adverse event, % participants: 0%
  Any treatment-related serious adverse event, n participants: 0 n
  Constipation, % participants: 4.8%
  Constipation, n participants: 13 n
  Diarrhea, % participants: 4.4%
  Diarrhea, n participants: 12 n
  Headache, % participants: 7.8%
  Headache, n participants: 21 n
  Insomnia, % participants: 9.6%
  Insomnia, n participants: 26 n
  Nausea, % participants: 5.6%
  Nausea, n participants: 15 n
  Number of treatment emergent adverse events: 494 n
[2]; Arm C, 12 weeks
  Mild treatment emergent adverse events, %: 61.3%
  Moderate treatment emergent adverse events, %: 36.0%
  Severe treatment emergent adverse events, %: 2.6%
[2]; Arms B and C, of 539 participants
  Serious adverse events (SAEs), participants: 18 (3.3%) n (%)
[2]; all arms
  treatment-related SAEs: No SAE was judged to be treatment-related
[2]; cytisinicline arms
  incidences of abnormal dreams and insomnia vs placebo: higher in the cytisinicline arms compared to placebo
[2]; cytisinicline vs placebo, exact 95% CI 0.98 to 13.18
  OR, serious adverse events: 3.08
[3]; Baseline, N 105
  Saliva cotinine, mean: 316.186 ng/mL
  Saliva cotinine, median: 303.000 ng/mL
[3]; Week 7
  Saliva cotinine, LS means difference from placebo, p-value: 1.0000
[3]; Week 8
  Saliva cotinine, LS means difference from placebo, p-value: 1.0000
[3]; Week 9
  Saliva cotinine, LS means difference from placebo, p-value: 1.0000
[3]; Week 10
  Saliva cotinine, LS means difference from placebo, p-value: 1.0000
[3]; Week 11
  Saliva cotinine, LS means difference from placebo, p-value: 1.0000
[3]; Week 12
  Saliva cotinine, LS means difference from placebo, p-value: 1.0000
[3]; Week 16
  Saliva cotinine, LS means difference from placebo, p-value: 1.0000
